The text below walks through data of patent US11786597B2, “Ionic liquids for transdermal drug delivery” (priority 2013, dated 2023).

This series in a line: Solubility in water (physical characterization). The conditions noted are these: 25° C.

On to choline hexanoate [LANL-13], for which the solubility in water was 500 mM.
